1 compound from ChEMBL document CHEMBL1800071, “Switching reversibility to irreversibility in glycogen synthase kinase 3 inhibitors: clues for specific design of new compounds” (J Med Chem, 2011) can be followed below.

The assay addresses Muscarinic acetylcholine receptor (Rattus norvegicus) (UniProt P08482+P08483+P08485+P08911+P10980). Nature of the assay: Displacement of [3H]-QNB from muscarinic receptor in rat cerebral cortex at 10 uM. In kind it is tissue-based. In general terms: In a radioligand displacement assay an active substance lowers the binding of a labelled ligand.

Consider `Cc1ccc(C(=O)CBr)cc1`, for which the inhibition (usually the change of the read-out against control, counted positive when it falls) was found to be 13%.
